Literature values as cited in US20110105449A1, “DRY POWDER FORMULATIONS COMPRISING ASCORBIC ACID DERIVATES” (ASTRAZENECA R&D, priority 2007, published 2011).

salbutamol sulphate [SBS]
water solubility (in words): highly water-soluble
